Patent publication US5219872A, “Compounds of 1,2,5,6-tetrahydropyridin-3-carboxaldehyde oxime which are useful as cholinergic agents” (Roussel UCLAF, priority 1986, dated 1993)
Where a name gives a salt, the structure may show the parent alone.

Experiment: in vivo
Conditions: rat, oral route, male rats CD1, fasting 16 hours, mortality in seven days
Protocol: Male rats (CD1 Charles Rivers) were used, weighing […], fasting for 16 hours. […] The mortality was checked in the seven days following the treatment.

CON=CC1=CCCN(C)C1 [Example 1, 1-methyl-1,2,5,6-tetrahydropyridin-3-carboxyaldehyde-O-methyloxime hydrochloride]
LD50 at 168 h: 450 mg/kg
